Measured values: patent publication US20090022714A1, “Combination methods of inhibiting tumor growth with a vascular endothelial growth factor receptor antagonist” (ImClone Systems, Inc., priority 2001, published 2009)

Key:
HL60 cells = assay: Leukemia migration assay, HL60; assay type: cell-based, human; settings: Fab 5 Φg/ml
Method: (§1) HL60 and HEL cells were washed three times with serum-free plain RPMI 1640 medium and suspended in the medium at 1×10^6/ml. Aliquots of 100 Φl cell suspension were added to either 3-Φm-pore transwell inserts for HL60 cells, or 8-Φm-pore transwell inserts for HEL cells (Costar®, Corning Incorporated, Corning, N.Y.) and incubated with the anti-KDR (VEGFR-2) Fab proteins (5 Φg/ml) for 30 min at 37° C. […] The migration was carried out at 37° C., 5% CO2 for 16-18 h for HL60 cells, or for 4 h for HEL cells. Migrated cells were collected from the lower compartments and counted with a Coulter counter (Model Z1, Coulter Electronics Ltd., Luton, England).

HEL cells = assay: Leukemia migration assay, HEL; assay type: cell-based, human; settings: Fab 5 Φg/ml
Method: as §1

Substance: Fab fragment of C225: Fab fragment of C225, an antibody directed against EGF receptor; control
- inhibition of VEGF-stimulated migration of HL60 cells (HL60 cells): did not show significant inhibitory effect
- inhibition of VEGF-stimulated migration of HEL cells (HEL cells): did not show significant inhibitory effect
